From patent US20040049056A1 (priority 2000, published 2004)
Read-outs that look alike come from different tables or passages of the source.

Key:
[1] = system: Solanum nigrum; settings: 50 mg/L, 25° C., 7 days, visual assessment
[2] = system: Lactuca sativa; settings: 50 mg/L, 25° C., 7 days, visual assessment
[3] = system: Amaranthus retroflexuso
[4] = system: Setaria viridis
[5] = 50 mg/L, 25° C., 7 days, visual assessment

Row | Structure (SMILES) | Herbicidal activity (0 to 5) Solanum nigrum [1] | Herbicidal activity (0 to 5) Lactuca sativa [2] | Herbicidal activity (0 to 5) Amaranthus retroflexuso [3, 5] | Herbicidal activity (0 to 5) Setaria viridis [4, 5] | Kind of herbicidal effect, Setaria viridis [4, 5] | Kind of herbicidal effect, Solanum nigrum [1] | Herbicidal activity (0 to 5) Amaranthus retroflexuso ([3]; in vivo) | Herbicidal activity (0 to 5) Setaria viridis ([4]; in vivo)
1 | Oc1ccc(O)c(OCc2ccccc2)c1 [Compound (a), 2-benzyloxy-1,4-hydroquinone] | 5 (suppressed by 80% or more) | 4.8 | 5 (suppressed by 80% or more) | 1 (suppressed by less than 20%) | IglrUr | – | – | –
2 | O=Cc1cc2c(cc1O)OCO2 [Compound (d), 4,5-methylenedioxysalicylaldehyde] | – | 2 (suppressed by a range from 20% to less than 40%) | 0 | 0 | – | Iglr | – | –
3 | CC1(C)Oc2cc(O)c(C=O)cc2O1 [Compound (e), 2,2-dimethyl-5-formyl-6-hydroxy-1,3-benzodioxol] | – | – | – | – | – | – | 0 | 0
